Measured values from patent US20220117917A1, “PH-ACTIVATED NANOPARTICLES” (Ohio State Innovation Foundation, priority 2018, published 2022).

Columns and labels:
BT-474R cells = test: Cell viability and Western blot, trastuzumab-resistant cells; type: cell-based, human
HER18R cells = test: as above; type: cell-based, human
[1] = system: HER2-positive breast cancer; conditions: single therapy; cited from earlier work
BT474 cells = test: Cell viability and Western blot; type: cell-based, human; conditions: parental cells
HER18 cells = test: Cell viability and Western blot; type: cell-based, human; conditions: parental cells

Substance: trastuzumab: monoclonal anti-HER2 antibody
- cell proliferation (p27) and AKT signaling (pAKT) (BT-474R cells): not observed in the resistant cells
- increase of IC50 versus parental line (BT-474R cells; 72 h): ~10 fold
- cell proliferation (p27) and AKT signaling (pAKT) (HER18R cells): not observed in the resistant cells
- increase of IC50 versus parental line (HER18R cells; 72 h): ~10 fold
- sensitivity to single agent (HER18R cells; trastuzumab 1 μg/ml, 72 h): insensitive
- overall response rate [1]: 26%
- cell proliferation (p27) and AKT signaling (pAKT) (BT474 cells): inhibited cell proliferation (increased p27 levels) and AKT signaling pathway (reduced pAKT levels)
- cell proliferation (p27) and AKT signaling (pAKT) (HER18 cells): inhibited cell proliferation (increased p27 levels) and AKT signaling pathway (reduced pAKT levels)
